Measurements reported in publication PMC11405395 (The EMBO Journal, 2024).

Target: T1, Homo sapiens DNA polymerase ε (POLE1, POLE2, POLE3, POLE4) (human, UniProt Q07864 1-2286; P56282 1-527; Q9NRF9 1-147; Q9NR33 1-117)
T1 construct: POLE1 (catalytic subunit of DNA polymerase ε), human; POLE2 (homologue of budding yeast Dpb2), human (PolE2_tev_2XFLAG; tag removed with TEV protease); POLE3, human; POLE4, human; The methods call the removed tag 3FLAG, the strain and plasmid 2XFLAG; also called hsPOL ε; POL ε; source: S. cerevisiae strain ySP061, purified (anti-FLAG M2 resin, TEV cleavage, MonoQ, Superdex 200); not shown: …
Experiment: co-IP; purified proteins mixed: 10 nM RTEL1-FLAG with 15 nM hsPol ε, 10 min on ice; anti-FLAG M2 magnetic beads; 25 mM Hepes-KOH pH 7.6, 200 mM KOAc, 0.02% NP-40-S, 0.1 mg/mL BSA, 1 mM DTT, 10 mM Mg(OAc)2; immunoblotting
Details: both partners purified

B1: Homo sapiens RTEL1 (wild-type, FLAG-tagged) (enzyme, human, UniProt Q9NZ71-1 1-1219, looked up)
chain: MPKIVLNGVTVDFPFQPYKCQQEYMTKVLECLQQKVNGILESPTGTGKTLCLLCTTLAWREHLRDGISARKIAERAQGELFPDRALSSWGNAAAAAGDPIACYTDIPKIIYASRTHSQLTQVINELRNTSYRPKVCVLGSREQLCIHPEVKKQESNHLQIHLCRKKVASRSCHFYNNVEEKSLEQELASPILDIEDLVKSGSKHRVCPYYLSRNLKQQADIIFMPYNYLLDAKSRRAHNIDLKGTVVIFDEAHNVEKMCEESASFDLTPHDLASGLDVIDQVLEEQTKAAQQGEPHPEFSADSPSPGLNMELEDIAKLKMILLRLEGAIDAVELPGDDSGVTKPGSYIFELFAEAQITFQTKGCILDSLDQIIQHLAGRAGVFTNTAGLQKLADIIQIVFSVDPSEGSPGSPAGLGALQSYKVHIHPDAGHRRTAQRSDAWSTTAARKRGKVLSYWCFSPGHSMHELVRQGVRSLILTSGTLAPVSSFALEMQIPFPVCLENPHIIDKHQIWVGVVPRGPDGAQLSSAFDRRFSEECLSSLGKALGNIARVVPYGLLIFFPSYPVMEKSLEFWRARDLARKMEALKPLFVEPRSKGSFSETISAYYARVAAPGSTGATFLAVCRGKASEGLDFSDTNGRGVIVTGLPYPPRMDPRVVLKMQFLDEMKGQGGAGGQFLSGQEWYRQQASRAVNQAIGRVIRHRQDYGAVFLCDHRFAFADARAQLPSWVRPHVRVYDNFGHVIRDVAQFFRVAERTMPAPAPRATAPSVRGEDAVSEAKSPGPFFSTRKAKSLDLHVPSLKQRSSGSPAAGDPESSLCVEYEQEPVPARQRPRGLLAALEHSEQRAGSPGEEQAHSCSTLSLLSEKRPAEEPRGGRKKIRLVSHPEEPVAGAQTDRAKLFMVAVKQELSQANFATFTQALQDYKGSDDFAALAACLGPLFAEDPKKHNLLQGFYQFVRPHHKQQFEEVCIQLTGRGCGYRPEHSIPRRQRAQPVLDPTGRTAPDPKLTVSTAAAQQLDPQEHLNQGRPHLSPRPPPTGDPGSQPQWGSGVPRAGKQGQHAVSAYLADARRALGSAGCSQLLAALTAYKQDDDLDKVLAVLAALTTAKPEDFPLLHRFSMFVRPHHKQRFSQTCTDLTGRPYPGMEPPGPQEERLAVPPVLTHRAPQPGPSRSEKTGKTQSKISSFLRQRPAGTVGAGGEDAGPSQSSGPPHGPAASEWGL
notes: RTEL1, human; the models and residue numbers are of isoform 1 (NP_057518.1), printed to residue 1219; Plasmid pTD195; The isoform is printed for the AlphaFold models; the deletion mutants use the same numbering; also called hsRTEL1; RTEL1-2FLAG; source: S. cerevisiae strain yOO1, purified (anti-FLAG M2 resin, HiLoad Superdex 200); not shown: 2XFLAG, C-terminal, kept
  binding result: binds
